We go through 58 substances from US20240360179A1, “STAPLED PEPTIDES AND METHODS THEREOF” (FOG PHARMACEUTICALS, INC., priority 2021, published 2024).

By UniProt entry, the sequences of proteins in these tests, tags left out.
UniProt P35222, whole entry: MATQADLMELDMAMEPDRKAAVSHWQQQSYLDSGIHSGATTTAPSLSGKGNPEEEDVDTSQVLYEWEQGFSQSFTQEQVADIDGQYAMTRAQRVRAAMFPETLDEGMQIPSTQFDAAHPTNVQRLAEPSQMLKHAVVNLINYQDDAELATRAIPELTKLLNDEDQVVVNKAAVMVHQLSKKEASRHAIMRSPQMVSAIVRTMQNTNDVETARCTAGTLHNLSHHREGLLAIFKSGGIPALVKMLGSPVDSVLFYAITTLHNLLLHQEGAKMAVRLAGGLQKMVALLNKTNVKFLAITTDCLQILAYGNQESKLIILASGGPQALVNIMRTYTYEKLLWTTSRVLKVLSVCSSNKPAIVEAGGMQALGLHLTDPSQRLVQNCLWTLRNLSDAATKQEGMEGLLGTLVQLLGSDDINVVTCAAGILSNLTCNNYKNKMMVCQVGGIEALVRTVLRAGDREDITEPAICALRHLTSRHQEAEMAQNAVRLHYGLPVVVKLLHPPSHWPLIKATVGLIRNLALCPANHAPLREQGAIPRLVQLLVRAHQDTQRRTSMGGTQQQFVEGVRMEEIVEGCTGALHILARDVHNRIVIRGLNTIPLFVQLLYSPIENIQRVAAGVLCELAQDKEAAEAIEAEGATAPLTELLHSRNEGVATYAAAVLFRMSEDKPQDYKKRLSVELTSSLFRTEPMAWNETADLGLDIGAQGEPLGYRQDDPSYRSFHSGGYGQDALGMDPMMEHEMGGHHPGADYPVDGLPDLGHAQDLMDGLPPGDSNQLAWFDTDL

The first experiment addresses T1, full-length B-Catenin (Uniprot ID P35222) (Homo sapiens, UniProt P35222).
T1 construct: 10 nM full-length B-Catenin (Uniprot ID P35222)
The format is binding. The settings on record: competition fluorescence polarization; read-out: beta-Catenin FP IC50. (Polarisation of emitted light reports the rotation of a fluorescent probe.)
Turning to “Ac-PL3-Asp-Npg-B5-Asp-3COOHF-Aib-Ala-Phe-[C3]hCys-PyrS2-3Thi-BztA-Pen-Ala-NH2 [I-1471]”, the IC50 (as a rule, the point on the concentration scale where inhibition reaches its midpoint) lay in the range of 50 to 200 nM.

For the substance “Ac-PL3-Asp-Npg-B5-Asp-3COOHF-Ala-Ala-Phe-TriAzLys*3-PyrS2-3Thi-BztA-sAla*3-NH2 [I-20]”, the IC50 is less than 50 nM.

As to “NPyroR3-Asp-Ala-B6-Asp-3COOHF-Aib-Ala-Phe-Lys*3-PyrS1-3Thi-BztA-GlnR*3-Ala-NH2 [I-1494]”, the IC50 was less than 50 nM.

As to “Ac-PL3-Asp-Leu-B5-Asp-3COOHF-Ala-Ala-Phe-Lys*3-PyrS1-Phe-34ClF-GlnR*3-NH2 [I-1700]”, the IC50 is less than 50 nM.

In the case of “Ac-Pro-S5-Val-Asp-Leu-B5-Asp-3COOHF-Aib-Ala-Phe-Lys*3-PyrS1-Phe-34ClF-GlnR*3-NH2 [I-1892]”, the IC50 was less than 50 nM.

“Ac-PL3-Asp-Npg-B5-Asp-3COOHF-Aib-Ala-Phe-Lys*3-PyrS2-hCha-34ClF-GlnR*3-Val-Glu-Ala-NH2 [I-1350]”: the IC50 is less than 50 nM.

With “Ac-S5-Ala-Asp-Npg-B5-Ala-Asp-3COOHF-Aib-Ala-Phe-[4Abu]DapAc7-Leu-3Thi-BztA-GlnR*3-Ala-NH2 [I-1297]”, the IC50 was more than 1000 nM.

As for “Ac-PL3-Asp-Npg-B5-Asp-3COOHF-Aib-Ala-Phe-Lys*3-PyrS2-hhLeu-BztA-GlnR*3-Ala-NH2 [I-1304]”, the IC50 was less than 50 nM.

As to “Ac-S5-Ala-Asp-Ile-B5-Asp-2COOHF-Aib-Ala-Phe-Lys*3-PyrS2-Phe-34ClF-GlnR*3-NH2 [I-1335]”, the IC50 was less than 50 nM.

Take “Ac-PL3-Asp-Npg-B5-Asp-3COOHF-Aib-Ala-Phe-Lys*3-PyrS2-3Thi-BztA-GlnR*3-Ala-Ala-Ala-[mPEG37]Lys-NH2 [I-1410]”: the IC50 is less than 50 nM.

Turning to “Ac-PL3-Asp-Npg-B5-Asp-3COOHF-Aib-Ala-Phe-[m5Pyr]Cys-PyrS2-3Thi-BztA-Cys-Ala-NH2 [I-1451]”, the IC50 was less than 50 nM.

Take “Ac-PL3-Asp-Npg-B5-Asp-3COOHF-Aib-Ala-Phe-Lys*3-PyrS2-2F3MeF-BztA-GlnR*3-Lys-NH2 [I-1628]”: the IC50 is less than 50 nM.

Consider “Ac-PL3-Asp-DipA-B5-Asp-3COOHF-CyLeu-Ala-Phe-Lys*3-PyrS2-2F3MeF-34ClF-GlnR*3-NH2 [I-1640]”, for which the IC50 is more than 1000 nM.

As for “Ac-PL3-Asp-Npg-B5-Asp-3COOHF-Aib-Ala-Phe-Lys*3-PyrS2-Ala-BztA-GlnR*3-Ala-NH2 [I-267]”, the IC50 lay within 200 to 750 nM.

Turning to “Cbc-PL3-Asp-Npg-B5-Asp-3COOHF-Aib-Ala-Phe-Lys*3-PyrS2-Phe-34ClF-GlnR*3-NH2 [I-1566]”, the IC50 was less than 50 nM.

As to “Ac-PL3-Asp-Leu-B5-Asp-3COOHF-Aib-Ala-Phe-Lys*3-PyrS2-BztA-BztA-GlnR*3-Ala-NH2 [I-1914]”, the IC50 is less than 50 nM.

As to “Ac-PL3-Asp-Ile-B5-Asp-3COOHF-Aib-Ala-Phe-Lys*3-PyrS2-Phe-34MeF-GlnR*3-Ala-NH2 [I-1104]”, the IC50 is less than 50 nM.

Regarding “Ac-PL3-Asp-Ile-B5-Asp-3COOHF-Aib-Ala-Phe-Lys*3-PyrS2-2MeF-BztA-GlnR*3-NH2 [I-1546]”, the IC50 was less than 50 nM.

Take “Ac-Pro-S5-Glu-Asp-Leu-B5-Asp-3COOHF-Aib-Ala-Phe-Lys*3-PyrS1-Phe-34ClF-GlnR*3-NH2 [I-1887]”: the IC50 is less than 50 nM.

With “Ac-PL3-Asp-Npg-B5-Asp-3COOHF-Aib-Ala-Phe-TriAzLys*3-PyrSc7-3Thi-BztA-sAla*3-Ala-NH2 [I-1125]”, the concentration for half-maximal inhibition (IC50) is less than 50 nM.

As to “Ac-S5-Ala-Asp-Npg-B5-Hse-3COOHF-Aib-Ala-Phe-Lys*3-PyrS2-3Thi-BztA-GlnR*3-Ala-NH2 [I-1205]”, the IC50 was more than 1000 nM.

For “Ac-PL3-RbGlu-Npg-B5-Asp-3COOHF-Aib-Ala-Phe-Lys*3-PyrS2-3Thi-BztA-GlnR*3-Ala-NH2 [I-965]”, the IC50 fell in the range of 200 to 750 nM.

For “Ac-PL3-Asp-nLeu-B5-Asp-3COOHF-CyhLeu-Ala-Phe-Lys*3-PyrS2-3Thi-BztA-GlnR*3-Ala-NH2 [I-855]”, the IC50 was less than 50 nM.

Take “Ac-PL3-Asp-Npg-B5-Asp-3COOHF-Aib-Ala-3MeF-Lys*3-PyrS2-3Thi-BztA-GlnR*3-Ala-NH2 [I-591]”: the IC50 is less than 50 nM.

For the substance “Ac-PL3-Asp-Npg-B5-Asp-3COOHF-Ala-Ala-Phe-Lys*3-PyrS2-2F3MeF-34ClF-GlnR*3-Leu-NH2 [I-828]”, the IC50 lay in the range of 50 to 200 nM.

For the substance “Ac-PL3-Asp-Leu-B5-Asp-3COOHF-Ala-Ala-Phe-Lys*3-PyrS2-Phe-34ClF-GlnR*3-NH2 [I-1699]”, the IC50 was less than 50 nM.

Turning to “Ac-PL3-Asp-Npg-B5-Asp-3COOHF-Ala-Ala-Phe-Lys*3-PyrS2-2F3MeF-BztA-GlnR*3-Leu-NH2 [I-105]”, the IC50 is less than 50 nM.

For the substance “Ac-S5-Glu-Glu-Npg-B5-Asp-3COOHF-Aib-Ala-Phe-Lys*3-PyrS2-3Thi-BztA-GlnR*3-Ala-NH2 [I-1226]”, the IC50 was 750 to 1000 nM.

Consider “Ac-S6-Pro-Asp-DipA-B5-Asp-3COOHF-Aib-Ala-Phe-Lys*3-PyrS1-Phe-34ClF-GlnR*3-NH2 [I-1696]”, for which the IC50 was less than 50 nM.

For the substance “Ac-S5-Val-Asp-Cha-B5-Asp-3COOHF-Aib-Ala-Phe-Lys*3-PyrS2-Phe-34ClF-GlnR*3-NH2 [I-1618]”, the IC50 was in the range of 50 to 200 nM.

For “Ac-PL3-Asp-Ile-B5-Asp-3COOHF-GlnPDA*3-Ala-Phe-Val-PyrS2-Phe-34ClF-GlnR*3-NH2 [I-1795]”, the IC50 was 200 to 750 nM.

Consider “Ac-PL3-Asp-Ile-B5-Asp-3COOHF-Aib-Ala-Phe-Lys*3-PyrS2-Phe-3ClF-GlnR*3-NH2 [I-1598]”, for which the IC50 is less than 50 nM.

For “Ac-PL3-Asp-Npg-B5-Asp-3COOHF-Aib-Ala-Phe-Lys*3-PyrS2-hCypA-34ClF-GlnR*3-Val-Glu-Ala-NH2 [I-1349]”, the IC50 was less than 50 nM.

Take “Ac-S5-Asp-Ser-Npg-B5-Asp-3COOHF-Aib-Ala-Phe-Lys*3-PyrS2-Phe-34ClF-GlnR*3-NH2 [I-1675]”: the IC50 lay within 200 to 750 nM.

For the substance “Ac-PL3-Asp-Npg-B5-Asp-3COOHF-Aib-Ala-Phe-TriAzLys*3-PyrSc72RMe3SOMe-3Thi-BztA-sAla*3-Ala-NH2 [I-1121]”, the IC50 is less than 50 nM.

“Ac-PL3-Asp-Npg-B5-Asp-3COOHF-[isovaleryl]PyrSa-Ala-Phe-Lys*3-PyrS2-3Thi-BztA-GlnR*3-Ala-NH2 [I-1033]”: the IC50 fell in the range of 50 to 200 nM.

“Ac-PL3-Asp-Npg-B5-Asp-3COOHF-Aib-Ala-Phe-Lys*3-PyrS2-[2PyzCO]2NH2F-BztA-GlnR*3-Ala-NH2 [I-1755]”: the IC50 is less than 50 nM.

Take “1Pyrazole Ac-PL3-Asp-Npg-B5-Asp-3COOHF-Aib-Ala-Phe-Lys*3-PyrS2-3Thi-BztA-GlnR*3-Ala-NH2 [I-1069]”: the IC50 was less than 50 nM.

With “Ac-S5-Ala-Asp-Cha-B5-Asp-3COOHF-Aib-Ala-Phe-Lys*3-PyrS2-Phe-34ClF-GlnR*3-NH2 [I-1616]”, the IC50 was less than 50 nM.

Turning to “Ac-S5-Leu-Asp-Ile-B5-Asp-3COOHF-Aib-Ala-Phe-Lys*3-PyrS2-Phe-34ClF-GlnR*3-NH2 [I-1296]”, the IC50 was in the range of 50 to 200 nM.

For “Ac-PL3-Asp-Npg-B5-Asp-TfeGA-Aib-Ala-Phe-Lys*3-PyrS2-3Thi-34ClF-GlnR*3-NH2 [I-881]”, the concentration for half-maximal inhibition (IC50) is less than 50 nM.

In the case of “Ac-PL3-Asp-Npg-B5-Asp-3COOHF-Aib-Ala-Phe-Lys*3-PyrS2-3Thi-BztA-GlnR*3-Ala-Ala-Ala-[PEG4triPEG16]Lys-NH2 [I-1525]”, the IC50 was less than 50 nM.

In the case of “Ac-PL3-Asp-Npg-B5-Asp-[Tfb]GA-Aib-Ala-Phe-Lys*3-PyrS2-3Thi-BztA-GlnR*3-Ala-NH2 [I-1399]”, the IC50 is less than 50 nM.

“Ac-PL3-Asp-DipA-B5-Thr-3COOHF-nLeu-Ala-Phe-Lys*3-PyrS2-3Thi-BztA-GlnR*3-NH2 [I-1684]”: the IC50 lay within 200 to 750 nM.

With “Ac-PL3-NAsp-Npg-B5-Asp-3COOHF-Aib-Ala-Phe-Lys*3-PyrS2-3Thi-BztA-GlnR*3-Ala-NH2 [I-819]”, the IC50 lay within 50 to 200 nM.

In the case of “Ac-S5-Ala-Asp-Npg-B5-Asp-3COOHF-Aib-Ala-Phe-Lys*3-PyrS2-Phe-34ClF-GlnR*3-Ala-NH2 [I-1229]”, the IC50 was less than 50 nM.

In the case of “Ac-PL3-Asp-Npg-B5-Asp-3COOHF-Aib-Ala-Phe-Lys*3-PyrS2-3Thi-BztA-GlnR*3-Thr-Ser-Leu-NH2 [I-1473]”, the 50% inhibitory concentration (IC50) was less than 50 nM.

Turning to “Ac-PL3-Npg-Npg-B5-Asp-3COOHF-Aib-Ala-Phe-Lys*3-PyrS2-3Thi-BztA-GlnR*3-Ala-NH2 [I-1153]”, the IC50 was more than 1000 nM.

Turning to “Ac-S5-Ala-Asp-Npg-B5-Glu-3COOHF-Aib-Ala-Phe-Lys*3-PyrS2-3Thi-BztA-GlnR*3-Ala-NH2 [I-1200]”, the IC50 lay within 200 to 750 nM.

“Ac-PL3-Asp-Npg-B5-Asp-3COOHF-Aib-Ala-Phe-Lys*3-PyrS2-[Phc]2NH2F-BztA-GlnR*3-Ala- [I-1663]”: the IC50 fell in the range of 750 to 1000 nM.

On to “1Imidac-PL3-Asp-Npg-B5-Asp-3COOHF-Aib-Ala-Phe-Lys*3-PyrS2-3Thi-BztA-GlnR*3-Ala-NH2 [I-1062]”, for which the IC50 was less than 50 nM.

For the substance “Ac-PL3-Asp-Ile-B5-Asp-3COOHF-Aib-Ala-Phe-GlnR*3-PyrS2-Phe-34ClF-AsnMeEDA*3-NH2 [I-1416]”, the IC50 is less than 50 nM.

With “Ac-S6-Glu-Asp-DipA-B5-Asp-3COOHF-Leu-Ala-Phe-Lys*3-PyrS1-Phe-BztA-GlnR*3-NH2 [I-1931]”, the IC50 was less than 50 nM.

In the case of “Ac-PL3-Asp-Npg-B5-Asp-3COOHF-Aib-Ala-Phe-Lys*3-PyrS2-3Thi-BztA-GlnR*3-Thr-Ser-Pro-NH2 [I-1477]”, the IC50 is less than 50 nM.

Regarding “Ac-PL3-Asp-Ile-B5-Asp-3COOHF-Aib-Ala-Phe-Lys*3-PyrS2-Phe-34ClF-GlnR*3-Ser-Glu-Leu-NH2 [I-1358]”, the IC50 is less than 50 nM.

In the case of “Ac-PL3-Asp-Npg-B5-Asp-3COOHF-Ala-Ala-Phe-TriAzLys*3-PyrS2-2F3MeF-BztA-sAla*3-NH2 [I-22]”, the IC50 is less than 50 nM.

With “Ac-PL3-Asp-Ile-B5-Asp-3COOHF-CyLeu-Ala-Phe-Lys*3-PyrS2-3Thi-34ClF-GlnR*3-Val-Thr-Ala-NH2 [I-1268]”, the IC50 was less than 50 nM.

Turning to “Ac-PL3-Asp-Npg-B5-Asp-3COOHF-Aib-Ala-Phe-Lys*3-PyrS2-hCha-BztA-GlnR*3-Val-Glu-Ala-NH2 [I-1347]”, the IC50 is less than 50 nM.

Staying with this experiment, now noted: read-out: beta-catenin TCF4 competition FP assay IC50.
With “Ac-PL3-Asp-Npg-B5-Asp-3COOHF-Aib-Ala-Phe-[m5Pyr]Cys-PyrS2-3Thi-BztA-Cys-Ala-NH2 [I-1451]”, the IC50 stood at 14 nM.
